For assay [1], the target named is GABA-A receptor; alpha-1/beta-3/gamma-2 (Homo sapiens) (UniProt P14867+P18507+P28472). The assay can be described thus: Antagonist activity at recombinant alpha-1-beta-3-gamma-2 L receptor expressed in HEK 293-T/17 cells assessed as GABA-induced current at 30 uM by whole-cell recording relative to control. The format is functional, cell-based. Further details: scale not given: the % may be the effect or the level left. As to conditions: HEK293.

By UniProt entry, the sequences of proteins in these tests, tags left out. Where a name states a change or a piece, a line headed by the entry shows the natural chain unless it says otherwise.
UniProt P14867: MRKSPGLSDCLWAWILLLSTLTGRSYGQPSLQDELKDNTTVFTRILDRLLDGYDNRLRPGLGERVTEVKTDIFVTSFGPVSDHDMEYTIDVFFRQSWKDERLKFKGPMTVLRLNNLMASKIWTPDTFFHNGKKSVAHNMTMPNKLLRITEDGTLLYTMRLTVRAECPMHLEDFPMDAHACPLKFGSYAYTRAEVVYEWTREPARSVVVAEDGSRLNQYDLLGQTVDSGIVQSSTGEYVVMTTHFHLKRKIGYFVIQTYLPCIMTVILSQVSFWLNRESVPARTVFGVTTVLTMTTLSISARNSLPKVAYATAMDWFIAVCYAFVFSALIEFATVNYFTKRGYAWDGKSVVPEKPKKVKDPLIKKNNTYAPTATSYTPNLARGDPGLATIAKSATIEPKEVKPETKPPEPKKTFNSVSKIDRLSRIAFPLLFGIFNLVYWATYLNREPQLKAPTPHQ
UniProt P18507: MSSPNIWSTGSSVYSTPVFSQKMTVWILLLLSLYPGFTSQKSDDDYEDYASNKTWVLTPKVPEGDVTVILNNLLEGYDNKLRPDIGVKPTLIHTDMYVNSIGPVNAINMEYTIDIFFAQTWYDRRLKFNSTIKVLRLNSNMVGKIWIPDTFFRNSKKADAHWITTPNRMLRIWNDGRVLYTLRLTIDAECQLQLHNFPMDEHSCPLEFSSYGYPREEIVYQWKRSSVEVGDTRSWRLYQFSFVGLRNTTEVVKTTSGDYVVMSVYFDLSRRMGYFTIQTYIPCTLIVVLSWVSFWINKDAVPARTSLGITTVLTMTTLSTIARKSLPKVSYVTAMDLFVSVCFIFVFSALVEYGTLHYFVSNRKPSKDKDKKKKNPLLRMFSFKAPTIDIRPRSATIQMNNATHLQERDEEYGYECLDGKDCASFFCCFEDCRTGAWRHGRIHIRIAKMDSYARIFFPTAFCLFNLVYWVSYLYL
UniProt P28472: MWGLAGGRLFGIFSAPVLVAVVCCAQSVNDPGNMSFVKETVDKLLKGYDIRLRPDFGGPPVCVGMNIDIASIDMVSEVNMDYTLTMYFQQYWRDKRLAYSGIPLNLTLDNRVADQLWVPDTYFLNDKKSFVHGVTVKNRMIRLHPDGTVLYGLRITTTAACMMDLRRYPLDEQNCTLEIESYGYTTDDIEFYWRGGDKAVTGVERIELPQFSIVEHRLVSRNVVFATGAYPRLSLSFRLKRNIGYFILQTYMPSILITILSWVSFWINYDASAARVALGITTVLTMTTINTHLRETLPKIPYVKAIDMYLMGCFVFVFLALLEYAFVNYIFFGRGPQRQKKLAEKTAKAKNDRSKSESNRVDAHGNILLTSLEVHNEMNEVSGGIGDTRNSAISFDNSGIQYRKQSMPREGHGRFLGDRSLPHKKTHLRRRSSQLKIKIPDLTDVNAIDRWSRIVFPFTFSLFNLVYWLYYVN

Assay [2] concerns Glutamate receptor ionotropic kainate 2 (GluK2). Put plainly: Antagonist activity at recombinant GluK2 receptor expressed in HEK 293-T/17 cells assessed as glutamate-induced current at 100 uM by whole-cell recording relative to control. Further details: scale not given: the % may be the effect or the level left. As to conditions: HEK293.

`Cl.Cn1c(=O)[nH]c2c([nH]c(=O)n2C)c1=N`: the Activity in assay [1] and in assay [2] was 99% in each case.
